# Where two headings read alike, the source gives them in different places.
# Protein sequences, listed by entry. Tags and fused reporters are not part of them. Lines headed by an entry give the natural chain unless they say otherwise; changes in a name come on top.
# UniProt P31391: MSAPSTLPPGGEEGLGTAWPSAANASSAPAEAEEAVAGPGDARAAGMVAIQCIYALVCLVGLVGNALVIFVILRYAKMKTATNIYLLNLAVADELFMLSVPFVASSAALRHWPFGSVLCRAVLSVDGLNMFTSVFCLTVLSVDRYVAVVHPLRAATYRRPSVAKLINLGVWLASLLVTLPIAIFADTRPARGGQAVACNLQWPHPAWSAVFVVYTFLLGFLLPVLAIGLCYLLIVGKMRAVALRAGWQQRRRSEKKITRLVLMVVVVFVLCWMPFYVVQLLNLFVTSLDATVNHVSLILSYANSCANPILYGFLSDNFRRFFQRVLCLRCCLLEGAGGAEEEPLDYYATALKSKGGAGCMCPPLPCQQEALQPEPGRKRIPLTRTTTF
# UniProt P35346: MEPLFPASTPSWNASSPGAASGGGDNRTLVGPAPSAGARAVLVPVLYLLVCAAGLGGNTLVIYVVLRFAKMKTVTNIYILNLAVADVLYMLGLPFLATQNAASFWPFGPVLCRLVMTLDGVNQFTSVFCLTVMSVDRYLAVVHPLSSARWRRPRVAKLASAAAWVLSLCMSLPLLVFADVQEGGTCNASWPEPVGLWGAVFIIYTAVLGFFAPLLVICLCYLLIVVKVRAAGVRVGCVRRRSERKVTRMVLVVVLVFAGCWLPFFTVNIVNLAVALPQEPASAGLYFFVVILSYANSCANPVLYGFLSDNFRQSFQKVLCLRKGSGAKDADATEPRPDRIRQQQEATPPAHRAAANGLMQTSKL
# UniProt P32745: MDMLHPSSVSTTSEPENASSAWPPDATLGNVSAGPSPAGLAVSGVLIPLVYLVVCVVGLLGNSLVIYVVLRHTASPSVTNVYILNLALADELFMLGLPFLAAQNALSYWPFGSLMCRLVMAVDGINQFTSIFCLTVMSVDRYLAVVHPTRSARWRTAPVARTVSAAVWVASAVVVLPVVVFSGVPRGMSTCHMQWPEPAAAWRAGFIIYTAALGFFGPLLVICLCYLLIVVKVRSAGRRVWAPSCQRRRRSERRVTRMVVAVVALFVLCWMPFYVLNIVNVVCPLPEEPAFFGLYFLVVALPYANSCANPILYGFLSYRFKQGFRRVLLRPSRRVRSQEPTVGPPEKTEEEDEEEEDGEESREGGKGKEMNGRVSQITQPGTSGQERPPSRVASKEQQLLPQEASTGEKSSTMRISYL
# UniProt P30874: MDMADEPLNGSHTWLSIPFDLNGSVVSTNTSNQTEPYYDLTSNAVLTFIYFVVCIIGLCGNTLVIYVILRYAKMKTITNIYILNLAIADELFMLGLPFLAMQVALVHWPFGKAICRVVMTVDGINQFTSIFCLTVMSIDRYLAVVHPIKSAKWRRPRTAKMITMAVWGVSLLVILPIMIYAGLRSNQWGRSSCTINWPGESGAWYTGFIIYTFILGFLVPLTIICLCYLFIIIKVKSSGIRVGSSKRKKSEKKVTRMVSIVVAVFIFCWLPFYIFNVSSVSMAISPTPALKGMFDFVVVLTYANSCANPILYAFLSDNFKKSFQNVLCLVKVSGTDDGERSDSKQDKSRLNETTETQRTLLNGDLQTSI
# UniProt P30872: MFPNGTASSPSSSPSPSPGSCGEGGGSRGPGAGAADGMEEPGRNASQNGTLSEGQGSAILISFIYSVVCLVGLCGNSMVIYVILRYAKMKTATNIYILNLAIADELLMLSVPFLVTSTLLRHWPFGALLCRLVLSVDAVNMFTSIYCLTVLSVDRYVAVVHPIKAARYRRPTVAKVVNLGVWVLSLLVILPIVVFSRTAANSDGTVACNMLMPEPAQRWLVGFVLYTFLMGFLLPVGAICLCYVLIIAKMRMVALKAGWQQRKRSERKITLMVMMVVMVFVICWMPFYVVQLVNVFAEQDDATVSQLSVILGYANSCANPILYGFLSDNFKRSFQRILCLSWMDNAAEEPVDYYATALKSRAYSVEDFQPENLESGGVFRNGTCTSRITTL
# Key:
# SSTR4 [1] = target: T1, SSTR4 (Homo sapiens, UniProt P31391); assay: Competitive binding assay, SSTR4; details: Table 3B, Example 67-2, competitive binding assay
# SSTR5 [2] = target: T2, SSTR5 (Homo sapiens, UniProt P35346); assay: Competitive binding assay, SSTR5; details: read-out: SSTR5 IC50; Table 3B, Example 67-2, competitive binding assay
# SSTR3 [3] = target: T3, SSTR3 (Homo sapiens, UniProt P32745); assay: Competitive binding assay, SSTR3; details: Table 3B, Example 67-2, competitive binding assay; for IC50: read-out: SSTR3 IC50; for Ki: read-out: SSTR3 Ki
# [4] = Pharmacokinetics test with rats (intravenous and subcutaneous administration); details: for extension of t1/2 compared to the non-glycosylated form (SRIF28 or SRIF14) / increase of AUC compared to the non-glycosylated form (SRIF28 or SRIF14): administered intravenously; for BA: subcutaneous vs intravenous
# SSTR2 [5] = target: T4, SSTR2 (Homo sapiens, UniProt P30874); assay: Agonist activity evaluation (cAMP production suppression), SSTR2 receptor expression cells; format: cell-based; set-up: host or cells: CHO-K1 cells
# SSTR4 [6] = target: T1, SSTR4; assay: Agonist activity evaluation (cAMP production suppression), SSTR4 receptor expression cells; format: cell-based
# SSTR2 [7] = target: T4, SSTR2; assay: Competitive binding assay, SSTR2; details: Table 3B, Example 67-2, competitive binding assay; for IC50: read-out: SSTR2 IC50; for Ki: read-out: SSTR2 Ki
# SSTR3 [8] = target: T3, SSTR3; assay: Agonist activity evaluation (cAMP production suppression), SSTR3 receptor expression cells; format: cell-based; set-up: host or cells: CHO-K1 cells
# SSTR1 [9] = target: T5, SSTR1 (Homo sapiens, UniProt P30872); assay: Competitive binding assay, SSTR1; details: for IC50: read-out: SSTR1 IC50
# SSTR1 [10] = target: T5, SSTR1
# SSTR5 [11] = target: T2, SSTR5; assay: Agonist activity evaluation (cAMP production suppression), SSTR5 receptor expression cells; format: cell-based; set-up: host or cells: CHO-K1 cells; details: Table 3D, Example 67-3; read-out: IC50 of cAMP production suppressing action (agonist activity), SSTR5
# SSTR5 [12] = target: T2, SSTR5
# SSTR2 [13] = target: T4, SSTR2
# SSTR1 [14] = target: T5, SSTR1; assay: Agonist activity evaluation (cAMP production suppression), SSTR1 receptor expression cells; format: cell-based; details: Table 3D, Example 67-3; read-out: IC50 of cAMP production suppressing action (agonist activity), SSTR1
# SSTR1-SSTR5 = assay: Competitive binding assay, statements over several receptors SSTR1-SSTR5; details: Example 67-1; approximately
# [15] = tested on: growth hormone (GH) production; assay: GH production suppression test with rats; format: in vivo
# SSTR3 [16] = target: T3, SSTR3
# [17] = rats, intravenous administration, Tables 5B-5F (Examples 73-84)
# [18] = rats, subcutaneous administration, Tables 5B-5F (Examples 73-84)
# [19] = rats, Tables 5B-5F (Examples 73-84)
# [20] = Table 3B, Example 67-2, competitive binding assay
# [21] = read-out: SSTR1 Ki, Table 3B, Example 67-2, competitive binding assay
# [22] = Table 8 (Example 87), dose 1 nmol/kg, vehicle 1012
# [23] = Table 8 (Example 87), dose 3 nmol/kg, vehicle 1012
# [24] = Table 8 (Example 87), dose 30 nmol/kg, vehicle 1012
# [25] = Table 3D, Example 67-3, read-out: IC50 of cAMP production suppressing action (agonist activity), SSTR2
# [26] = Table 3D, Example 67-3, read-out: IC50 of cAMP production suppressing action (agonist activity), SSTR4
# [27] = Table 3D, Example 67-3, read-out: IC50 of cAMP production suppressing action (agonist activity), SSTR3
# [28] = Table 4, rats, 40 nmol/kg intravenous
# [29] = Table 4, rats, 40 nmol/kg subcutaneous
# [30] = rats, intravenous administration, Table 5A (Examples 69-72), spread in the line below
# [31] = rats, subcutaneous administration, Table 5A (Examples 69-72), spread in the line below
substance,measurement,setting,value
3C(disialo)-R-K-SRIF14 [Example 49],IC50,SSTR4 [1],> 100 nM
same,Ki,SSTR4 [1],> 90 nM
same,IC50,SSTR5 [2],41 nM
same,IC50,SSTR3 [3],40 nM
same,extension of t1/2 compared to the non-glycosylated form (SRIF28 or SRIF14),[4]; rats,71 folds
same,increase of AUC compared to the non-glycosylated form (SRIF28 or SRIF14),[4]; rats,36 folds
same,Intravenous administration AUC,[4]; [17],4288 nM·min
same,Intravenous administration C0,[4]; [17],1013 nM
same,Intravenous administration MRT,[4]; [17],22.2 min
same,Intravenous administration T1/2,[4]; [17],35.7 min
same,Subcutaneous administration AUC,[4]; [18],3515 nM·min
same,Subcutaneous administration Cmax,[4]; [18],23.5 nM
same,Subcutaneous administration MRT,[4]; [18],112 min
same,Subcutaneous administration T1/2,[4]; [18],70.6 min
same,BA,[4]; [19],82%
same,IC50,"SSTR2 [5]; Table 3E, Example 67-4, read-out: IC50 of the agonist activity, SSTR2",1.4 nM
same,IC50,"SSTR4 [6]; Table 3E, Example 67-4, read-out: IC50 of the agonist activity, SSTR4",1.6 nM
same,IC50,SSTR2 [7],32 nM
same,IC50,"SSTR3 [8]; Table 3E, Example 67-4, read-out: IC50 of the agonist activity, SSTR3",3.8 nM
same,Ki,"SSTR1 [9]; read-out: Ki value against SSTR1, Example 67-2 (text on Table 3B)",270 nM
same,IC50,SSTR1 [9]; [20],270 nM
same,Ki,SSTR1 [9]; [21],230 nM
C(disialo)-R-K-SRIF14 [Example 18],IC50,SSTR1 [10],3.09 nM
same,Ki,SSTR1 [10],2.56 nM
same,IC50,SSTR5 [11],0.052 ± 0.032 nM
same,IC50,SSTR5 [12],0.187 nM
same,Ki,SSTR5 [12],0.106 nM
same,IC50,SSTR2 [13],0.104 nM
same,Ki,SSTR2 [13],0.0551 nM
same,IC50,SSTR1 [14],1.2 ± 0.6 nM
same,"affinity towards SSTR1-SSTR5, folds higher than S1C(disialo)-SRIF28",SSTR1-SSTR5,0.7-2.4 folds
same,extension of t1/2 compared to the non-glycosylated form (SRIF28 or SRIF14),[4]; rats,38 folds
same,increase of AUC compared to the non-glycosylated form (SRIF28 or SRIF14),[4]; rats,55 folds
same,Intravenous administration AUC,[4]; [17],6571 nM·min
same,Intravenous administration C0,[4]; [17],429 nM
same,Intravenous administration MRT,[4]; [17],22.5 min
same,Intravenous administration T1/2,[4]; [17],18.9 min
same,Subcutaneous administration AUC,[4]; [18],1996 nM·min
same,Subcutaneous administration Cmax,[4]; [18],32.5 nM
same,Subcutaneous administration MRT,[4]; [18],45.2 min
same,Subcutaneous administration T1/2,[4]; [18],28.4 min
same,BA,[4]; [19],30%
same,GH,[15]; [22],912 ng/mL
same,GH,[15]; [23],291 ng/mL
same,GH,[15]; [24],12 ng/mL
same,IC50,SSTR3 [16],0.231 nM
same,Ki,SSTR3 [16],0.0791 nM
same,IC50,SSTR2 [5]; [25],0.055 ± 0.015 nM
same,IC50,SSTR4 [6]; [26],0.05 ± 0.025 nM
same,IC50,SSTR3 [8]; [27],0.18 ± 0.1 nM
S1C(disialo)-SRIF28 [Example 1],IC50,SSTR5 [2],1.61 nM
same,IC50,SSTR1 [10],2.19 nM
same,Ki,SSTR1 [10],1.81 nM
same,IC50,SSTR5 [11],0.056 ± 0.028 nM
same,IC50,SSTR5 [12],0.442 nM
same,Ki,SSTR5 [12],0.25 nM
same,IC50,SSTR2 [13],0.109 nM
same,Ki,SSTR2 [13],0.0576 nM
same,IC50,SSTR1 [14],2.2 ± 1.1 nM
same,IC50,SSTR3 [3],1.08 nM
same,Ki,SSTR3 [3],0.676 nM
same,"AUC, intravenous administration",[4]; [28],5086 nM·min
same,"MRT, intravenous administration",[4]; [28],20.4 min
same,"t1/2, intravenous administration",[4]; [28],18.1 min
same,"C0 (predicted initial concentration), intravenous administration","[4]; Table 4, rats, 40 nmol/kg intravenous, extrapolation method",780 nM
same,"AUC, subcutaneous administration",[4]; [29],1273 nM·min
same,"Cmax, subcutaneous administration",[4]; [29],19.9 nM
same,"MRT, subcutaneous administration",[4]; [29],43.8 min
same,"t1/2, subcutaneous administration",[4]; [29],26.0 min
same,increase in half-life in blood,[4]; as measured in the method of Examples 68-72,≥ 10 folds
same,extension of t1/2 compared to the non-glycosylated form (SRIF28 or SRIF14),[4]; rats,13 folds
same,increase of AUC compared to the non-glycosylated form (SRIF28 or SRIF14),[4]; rats,11 folds
same,Intravenous administration AUC,[4]; [30],4855 nM·min
same,Intravenous administration C0,[4]; [30],686 nM
same,Intravenous administration MRT,[4]; [30],18.6 min
same,Intravenous administration t1/2,[4]; [30],16.9 min
same,Intravenous administration AUC,[4]; [17],5190 nM·min
same,Intravenous administration C0,[4]; [17],633 nM
same,Intravenous administration MRT,[4]; [17],19.1 min
same,Intravenous administration T1/2,[4]; [17],17.7 min
same,Subcutaneous administration AUC,[4]; [31],1773 nM·min
same,Subcutaneous administration Cmax,[4]; [31],28.9 nM
same,Subcutaneous administration MRT,[4]; [31],47.9 min
same,Subcutaneous administration t1/2,[4]; [31],29.8 min
same,Subcutaneous administration AUC,[4]; [18],1946 nM·min
same,Subcutaneous administration Cmax,[4]; [18],30.1 nM
same,Subcutaneous administration MRT,[4]; [18],49.2 min
same,Subcutaneous administration T1/2,[4]; [18],31.2 min
same,BA,"[4]; rats, BA=(AUC(sc)/Dose(sc))/(AUC(iv)/Dose(iv)), Table 5A",37%
same,BA,[4]; [19],38%
same,"bioavailability (BA), subcutaneous administration","[4]; rats, Examples 69-72 (text on Table 5A)",37%
same,GH,"[15]; Table 7 (Example 86), subcutaneous, dose 1 nmol/kg, 1 hour before GRF, plasma GH 5 minutes after GRF, vehicle 861",490 ng/mL
same,GH,"[15]; Table 7 (Example 86), subcutaneous, dose 10 nmol/kg, 1 hour before GRF, plasma GH 5 minutes after GRF, vehicle 861",17.1 ng/mL
same,GH,[15]; [22],787 ng/mL
same,GH,[15]; [23],182 ng/mL
same,GH,"[15]; Table 8 (Example 87), dose 10 nmol/kg, vehicle 1012",15 ng/mL
same,GH,[15]; [24],8 ng/mL
same,GH,"[15]; Table 8 (Example 87), dose 100 nmol/kg, vehicle 1012",7 ng/mL
same,IC50,SSTR3 [16],0.48 nM
same,Ki,SSTR3 [16],0.164 nM
same,IC50,SSTR2 [5]; [25],0.075 ± 0.03 nM
same,IC50,SSTR4 [6]; [26],0.065 ± 0.042 nM
same,IC50,SSTR2 [7],0.543 nM
same,Ki,SSTR2 [7],0.289 nM
same,IC50,SSTR3 [8]; [27],0.13 ± 0.06 nM
same,IC50,SSTR1 [9]; [20],7.71 nM
same,Ki,SSTR1 [9]; [21],6.45 nM
S1C(disialo).E12C(disialo)-SRIF28 [Example 47],IC50,SSTR4 [1],20 nM
same,IC50,SSTR5 [2],2.11 nM
same,IC50,SSTR3 [3],4.62 nM
same,Ki,SSTR3 [3],1.58 nM
same,IC50,SSTR2 [7],2.7 nM
same,Ki,SSTR2 [7],1.44 nM
same,IC50,SSTR1 [9]; [20],22 nM

# From US20170157260A1, “Glycosylated Polypeptide and Drug Composition Containing said Polypeptide” (Glytech, Inc., priority 2011, published 2017)
